BindingDB's records for doi:10.1016/j.chembiol.2004.10.013 (University of Dundee, 2005)

The chains behind the UniProt entries cited, without tags or fusion partners. Where a name states a change or a piece, a line headed by the entry shows the natural chain unless it says otherwise.
UniProt Q13231: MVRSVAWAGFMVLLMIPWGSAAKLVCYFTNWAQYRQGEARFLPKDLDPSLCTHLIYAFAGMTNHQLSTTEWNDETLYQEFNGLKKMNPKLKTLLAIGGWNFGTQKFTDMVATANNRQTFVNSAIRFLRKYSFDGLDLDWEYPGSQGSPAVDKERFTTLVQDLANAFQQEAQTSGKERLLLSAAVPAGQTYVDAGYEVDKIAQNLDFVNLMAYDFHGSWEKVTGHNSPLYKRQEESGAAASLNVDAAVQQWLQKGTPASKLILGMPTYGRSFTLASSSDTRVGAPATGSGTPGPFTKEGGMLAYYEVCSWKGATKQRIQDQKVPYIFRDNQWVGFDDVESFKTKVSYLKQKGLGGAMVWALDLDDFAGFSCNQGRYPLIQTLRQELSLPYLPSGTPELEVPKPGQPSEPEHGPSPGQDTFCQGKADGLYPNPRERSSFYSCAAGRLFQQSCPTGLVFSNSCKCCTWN

Molecular target: Chitotriosidase-1 (Homo sapiens, UniProt Q13231)
Assay: Enzyme Inhibition Assay
Details: pH 5.2; 37 °C
Protocol: The IC50s of inhibitor against the human chitinase were determined using the fluorogenic substrate 4MU-NAG3. The fluorescence of the liberated 4MU was quantified using a Perkin Elmer LS2 fluorimeter (excitation 366 nm, emission 445 nm).

CNC(=O)NC(=N)NCCC[C@@H]1NC(=O)[C@@H](C)NC(=O)C[C@@H](C(=O)O)NC(=O)C[C@@H](C(=O)O)NC(=O)[C@H](Cc2ccccc2)N(C)C1=O [(2R,5S,8S,11S,15S)-8-benzyl-2,7-dimethyl-5-[3-({[(methylcarbamoyl)amino]methanimidoyl}amino)propyl]-3,6,9,13,17-pentaoxo-1,4,7,10,14-pentaazacycloheptadecane-11,15-dicarboxylic acid]
IC50: 4.5 µM
